Source: patent publication US20260384424A1, “HETEROCYCLIC COMPOUND” (published 2026)

Amino acid sequences for entries named in this document (tags omitted).
UniProt O75116, whole entry: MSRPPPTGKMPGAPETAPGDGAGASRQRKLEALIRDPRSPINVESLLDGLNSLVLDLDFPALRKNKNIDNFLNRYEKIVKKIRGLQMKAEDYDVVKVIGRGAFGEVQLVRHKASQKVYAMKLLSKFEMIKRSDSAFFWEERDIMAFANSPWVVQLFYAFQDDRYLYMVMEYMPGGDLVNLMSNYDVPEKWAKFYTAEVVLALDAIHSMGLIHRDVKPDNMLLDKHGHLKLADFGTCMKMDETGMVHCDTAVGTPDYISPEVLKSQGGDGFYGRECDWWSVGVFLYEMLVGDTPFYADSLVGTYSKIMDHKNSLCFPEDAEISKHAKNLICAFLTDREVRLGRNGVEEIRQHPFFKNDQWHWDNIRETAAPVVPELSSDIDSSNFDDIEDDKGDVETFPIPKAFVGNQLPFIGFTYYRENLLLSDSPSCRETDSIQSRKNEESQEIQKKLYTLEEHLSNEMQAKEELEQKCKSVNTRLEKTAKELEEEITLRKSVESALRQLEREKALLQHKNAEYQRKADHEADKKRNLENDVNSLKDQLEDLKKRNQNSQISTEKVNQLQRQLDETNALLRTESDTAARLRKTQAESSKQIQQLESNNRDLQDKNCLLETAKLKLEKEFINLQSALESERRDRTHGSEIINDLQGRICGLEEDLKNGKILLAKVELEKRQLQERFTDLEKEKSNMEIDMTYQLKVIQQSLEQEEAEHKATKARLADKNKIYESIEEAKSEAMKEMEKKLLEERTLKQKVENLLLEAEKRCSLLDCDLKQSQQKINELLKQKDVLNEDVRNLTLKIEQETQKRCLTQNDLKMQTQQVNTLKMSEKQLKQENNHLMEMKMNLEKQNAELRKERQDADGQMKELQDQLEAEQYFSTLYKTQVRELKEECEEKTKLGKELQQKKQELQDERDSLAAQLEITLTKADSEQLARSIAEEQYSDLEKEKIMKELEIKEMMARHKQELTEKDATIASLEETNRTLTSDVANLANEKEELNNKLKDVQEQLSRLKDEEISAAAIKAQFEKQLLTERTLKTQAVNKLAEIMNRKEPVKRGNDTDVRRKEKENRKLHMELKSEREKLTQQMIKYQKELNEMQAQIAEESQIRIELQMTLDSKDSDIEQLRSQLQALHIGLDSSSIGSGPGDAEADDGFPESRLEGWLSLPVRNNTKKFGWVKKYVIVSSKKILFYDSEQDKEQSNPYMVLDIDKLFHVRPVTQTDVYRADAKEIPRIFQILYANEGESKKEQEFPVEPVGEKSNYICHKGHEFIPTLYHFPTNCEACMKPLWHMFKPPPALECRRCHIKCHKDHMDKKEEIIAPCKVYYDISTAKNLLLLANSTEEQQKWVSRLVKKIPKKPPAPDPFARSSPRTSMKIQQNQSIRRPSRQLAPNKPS

Molecular target: ROCK2 protein (Homo sapiens, UniProt O75116)
Assay: Degradation inducing activity of ROCK2 protein in HUVEC cells, Western Blotting
Conditions: 24 hours
Experimental: In vitro degradation inducing activity of ROCK2 protein of compounds of Examples was evaluated by Western Blotting (WB).
By a test compound, 10 mM DMSO solution was prepared, which was used as a 10 μM test compound solution. Further, the solution was diluted 10-fold with DMSO to prepare a 1 mM solution, which was used as a 1 μM test compound solution.
HUVEC cells (ATCC: CRL-1730, Lot: 70041472) were cultured in F-12K medium supplemented with 10% FBS, 0.1 mg/mL heparin, 30 mg/mL Endothelial Cell Growth Supplement (ECGS, Corning), and 1% Penicillin/Streptomycin. The HUVEC cells seeded in a 24 well plate at 50,000 cells/well/i mL were cultured for 24 hours, and then 1 μL of DMSO or a test compound solution was added thereto and treatment was performed for 24 hours. Cells were harvested and lysed for 20 minutes on ice using lysis buffer (Cell Signaling Technology, Cat #9803) supplemented with protease inhibitor cocktail (Sigma, Cat #P8340; Roche, Cat #P11873580001), and phosphatase inhibitor cocktail (Sigma, Cat #P5726, P0044). The lysate was sonicated (15 seconds, amplitude 30%, 1 cycle) and then centrifuged at 12500 rpm for 15 minutes at 4 °C. The protein concentration was determined by BCA assay kit (Thermo Fisher Scientific, Cat #23225).
The western blotting was performed using Simple Western JESS (protein simple). A cell lysis sample (protein amount; about 1.06 μg) was loaded on a plate of Simple Western JESS, and the expression level of ROCK2 protein was detected using a 12-230 kDa Wes Separation Module (Protein simple, Cat #SM-W004), an Anti-Rabbit Detection Module for Wes (Protein simple, Cat #DM-001), and a Total Protein Detection Module for Wes (Protein simple, Cat #DM-TP01). As the primary antibody, a material obtained by diluting ROCK2 (D1B1) Rabbit mAb (Cell Signaling Technology, Cat #9029) at 1:10 was used, and as the secondary antibody, a material obtained by diluting HRP-labeled anti-rabbit IgG antibody (Cell Signaling Technology, Cat #7074S) at 1:100 was used. The expression level of the target protein was standardized using the total protein amount loaded as a reference. The standardized expression level data of the control (DMSO) was taken as 100%, and the degradation rate (%) was calculated from the average standardized expression level data of the test compound. All analysis steps, such as data detection and analysis, are fully automated.
With respect to the ROCK2 protein degradation rate of the test compound, the protein degradation rates (%) at the evaluation concentrations were set to A≥75%, 75%>B≥50%, 50%>C≥25%, and D<25%, and are shown in Table 7.

COC[C@H]1CN[C@H](C)CN1CC(=O)N1CC(C)(C)c2nc(CN(C)CCOCCOCCOCCOCCOCCOCCN[C@H](Cc3cccc(F)c3)C(=O)Nc3ccc(-c4ccncc4)cc3)c(Cc3ccc(F)cc3)cc21
ROCK2 protein degradation rate (at 1 μm): D (D<25%)
ROCK2 protein degradation rate (at 10 μm): A (A≥75%)

COC[C@H]1CN[C@H](C)CN1CC(=O)N1CC(C)(C)c2nc(CN(C)CCOCCOCCOCCOCCOCCOCCNC[C@@H](C(=O)Nc3ccc4cnccc4c3)c3ccccc3)c(Cc3ccc(F)cc3)cc21
ROCK2 protein degradation rate (at 1 μm): B (75%>B≥50%)
ROCK2 protein degradation rate (at 10 μm): A (A≥75%)

COC[C@H]1CN[C@H](C)CN1CC(=O)N1CC(C)(C)c2nc(CN(C)CCOCCOCCOCCNC[C@@H](C(=O)Nc3ccc4cnccc4c3)c3ccccc3)c(Cc3ccc(F)cc3)cc21
ROCK2 protein degradation rate (at 1 μm): D (D<25%)
ROCK2 protein degradation rate (at 10 μm): A (A≥75%)

COC[C@H]1CN[C@H](C)CN1CC(=O)N1CC(C)(C)c2ncc(Cc3ccccc3OCCOCCNC[C@@H](C(=O)Nc3ccc4cnccc4c3)c3ccccc3)cc21
ROCK2 protein degradation rate (at 1 μm): D (D<25%)
ROCK2 protein degradation rate (at 10 μm): A (A≥75%)

COC[C@H]1CN[C@H](C)CN1CC(=O)N1CC(C)(C)c2ncc(Cc3cccc(OCCOCCOCCOCCOCCOCCN[C@H](Cc4cccc(F)c4)C(=O)Nc4ccc(-c5ccncc5)cc4)c3)cc21
ROCK2 protein degradation rate (at 1 μm): A (A≥75%)
ROCK2 protein degradation rate (at 10 μm): C (50%>C≥25%)

COC[C@H]1CN[C@H](C)CN1CC(=O)N1CC(C)(C)c2ncc(Cc3cccc(OCCOCCOCCOCCNC[C@@H](C(=O)Nc4ccc5cnccc5c4)c4ccccc4)c3)cc21
ROCK2 protein degradation rate (at 1 μm): A/A (A≥75%)
ROCK2 protein degradation rate (at 10 μm): A/A (A≥75%)

C[C@@H]1CN(CC(=O)N2CC(C)(C)c3ncc(Cc4ccc(F)cc4)cc32)[C@@H](CN(C)CCOCCOCCOCCNC[C@@H](C(=O)Nc2ccc3cnccc3c2)c2ccccc2)CN1
ROCK2 protein degradation rate (at 1 μm): C (50%>C≥25%)
ROCK2 protein degradation rate (at 10 μm): A (A≥75%)

COC[C@H]1CN[C@H](C)CN1CC(=O)N1CC(C)(C)c2nc(CN(C)CCOCCOCCOCCOCCOCCNC[C@@H](C(=O)Nc3ccc4cnccc4c3)c3ccccc3)c(Cc3ccc(F)cc3)cc21
ROCK2 protein degradation rate (at 1 μm): C (50%>C≥25%)
ROCK2 protein degradation rate (at 10 μm): B (75%>B≥50%)

COC[C@H]1CN[C@H](C)CN1CC(=O)N1CC(C)(C)c2nc(CN(C)CCOCCOCCOCCOCCOCCOCCOCCN[C@H](C)c3ccc(C(=O)Nc4ccncc4)cc3)c(Cc3ccc(F)cc3)cc21
ROCK2 protein degradation rate (at 1 μm): B (75%>B≥50%)
ROCK2 protein degradation rate (at 10 μm): D (D<25%)

(R)-18-(3-Fluorobenzyl)-1-(6-(4-fluorobenzyl)-1-(2-((2R,5R)-2-(methoxymethyl)-5-methylpiperazin-1-yl)acetyl)-3,3-dimethyl-2,3-dihydro-1H-pyrrolo[3,2-b]pyridin-5-yl)-2-methyl-N-(4-(pyridin-4-yl)phenyl)-5,8,11,14-tetraoxa-2,17-diazanonadecan-19-amide
ROCK2 protein degradation rate (at 1 μm): D (D<25%)
ROCK2 protein degradation rate (at 10 μm): A (A≥75%)

C[C@@H]1CN(CC(=O)N2CC(C)(C)c3ncc(Cc4ccc(F)cc4)cc32)[C@@H](CN(C)CCOCCOCCOCCOCCOCCOCCOCCN[C@H](Cc2cccc(F)c2)C(=O)Nc2ccc(-c3ccncc3)cc2)CN1
ROCK2 protein degradation rate (at 1 μm): C (50%>C≥25%)
ROCK2 protein degradation rate (at 10 μm): A (A≥75%)

COC[C@H]1CN[C@H](C)CN1CC(=O)N1CC(C)(C)c2ncc(Cc3cccc(OCCOCCOCCNC[C@@H](C(=O)Nc4ccc5cnccc5c4)c4ccccc4)c3)cc21
ROCK2 protein degradation rate (at 1 μm): B (75%>B≥50%)
ROCK2 protein degradation rate (at 10 μm): A (A≥75%)

C[C@@H]1CN(CC(=O)N2CC(C)(C)c3ncc(Cc4ccc(F)cc4)cc32)[C@@H](CN(C)CCOCCOCCN[C@H](C)c2ccc(C(=O)Nc3ccncc3)cc2)CN1
ROCK2 protein degradation rate (at 1 μm): D (D<25%)
ROCK2 protein degradation rate (at 10 μm): B (75%>B≥50%)

COC[C@H]1CN[C@H](C)CN1CC(=O)N1CC(C)(C)c2ncc(Cc3cccc(OCCOCCOCCOCCOCCOCCOCCNC[C@@H](C(=O)Nc4ccc5cnccc5c4)c4ccccc4)c3)cc21
ROCK2 protein degradation rate (at 1 μm): C (50%>C≥25%)
ROCK2 protein degradation rate (at 10 μm): A (A≥75%)

C[C@@H]1CN(CC(=O)N2CC(C)(C)c3ncc(Cc4ccc(F)cc4)cc32)[C@@H](CN(C)CCOCCOCCOCCOCCN[C@H](C)c2ccc(C(=O)Nc3ccncc3)cc2)CN1
ROCK2 protein degradation rate (at 1 μm): A/A (A≥75%)
ROCK2 protein degradation rate (at 10 μm): A/A (A≥75%)

C[C@@H]1CN(CC(=O)N2CC(C)(C)c3ncc(Cc4ccc(F)cc4)cc32)[C@@H](CN(C)CCOCCOCCOCCOCCN[C@H](Cc2cccc(F)c2)C(=O)Nc2ccc(-c3ccncc3)cc2)CN1
ROCK2 protein degradation rate (at 1 μm): B (75%>B≥50%)
ROCK2 protein degradation rate (at 10 μm): A (A≥75%)

C[C@@H]1CN(CC(=O)N2CC(C)(C)c3ncc(Cc4ccc(F)cc4)cc32)[C@@H](CN(C)CCOCCNC[C@@H](C(=O)Nc2ccc3cnccc3c2)c2ccccc2)CN1
ROCK2 protein degradation rate (at 1 μm): D (D<25%)
ROCK2 protein degradation rate (at 10 μm): A (A≥75%)

COC[C@H]1CN[C@H](C)CN1CC(=O)N1CC(C)(C)c2ncc(Cc3ccccc3OCCOCCOCCOCCN[C@H](C)c3ccc(C(=O)Nc4ccncc4)cc3)cc21
ROCK2 protein degradation rate (at 1 μm): A/A (A≥75%)
ROCK2 protein degradation rate (at 10 μm): A/A (A≥75%)

COC[C@H]1CN[C@H](C)CN1CC(=O)N1CC(C)(C)c2ncc(Cc3ccccc3OCCOCCOCCOCCOCCOCCOCCOCCN[C@H](Cc3cccc(F)c3)C(=O)Nc3ccc(-c4ccncc4)cc3)cc21
ROCK2 protein degradation rate (at 1 μm): D (D<25%)
ROCK2 protein degradation rate (at 10 μm): A (A≥75%)

COC[C@H]1CN[C@H](C)CN1CC(=O)N1CC(C)(C)c2nc(CN(C)CCOCCOCCOCCOCCNC[C@@H](C(=O)Nc3ccc4cnccc4c3)c3ccccc3)c(Cc3ccc(F)cc3)cc21
ROCK2 protein degradation rate (at 1 μm): C (50%>C≥25%)
ROCK2 protein degradation rate (at 10 μm): A (A≥75%)

COC[C@H]1CN[C@H](C)CN1CC(=O)N1CC(C)(C)c2nc(CN(C)CCOCCOCCOCCOCCOCCN[C@H](Cc3cccc(F)c3)C(=O)Nc3ccc(-c4ccncc4)cc3)c(Cc3ccc(F)cc3)cc21
ROCK2 protein degradation rate (at 1 μm): D (D<25%)
ROCK2 protein degradation rate (at 10 μm): A (A≥75%)

COC[C@H]1CN[C@H](C)CN1CC(=O)N1CC(C)(C)c2ncc(Cc3cccc(OCCOCCOCCOCCOCCOCCOCCOCCN[C@H](C)c4ccc(C(=O)Nc5ccncc5)cc4)c3)cc21
ROCK2 protein degradation rate (at 1 μm): A (A≥75%)
ROCK2 protein degradation rate (at 10 μm): B (75%>B≥50%)

COC[C@H]1CN[C@H](C)CN1CC(=O)N1CC(C)(C)c2ncc(Cc3cccc(OCCOCCOCCOCCN[C@H](Cc4cccc(F)c4)C(=O)Nc4ccc(-c5ccncc5)cc4)c3)cc21
ROCK2 protein degradation rate (at 1 μm): C (50%>C≥25%)
ROCK2 protein degradation rate (at 10 μm): B (75%>B≥50%)

COC[C@H]1CN[C@H](C)CN1CC(=O)N1CC(C)(C)c2ncc(Cc3cccc(OCCOCCOCCOCCOCCOCCOCCOCCNC[C@@H](C(=O)Nc4ccc5cnccc5c4)c4ccccc4)c3)cc21
ROCK2 protein degradation rate (at 1 μm): D (D<25%)
ROCK2 protein degradation rate (at 10 μm): B (75%>B≥50%)

C[C@@H]1CN(CC(=O)N2CC(C)(C)c3ncc(Cc4ccc(F)cc4)cc32)[C@@H](CN(C)CCOCCOCCOCCOCCOCCOCCOCCNC[C@@H](C(=O)Nc2ccc3cnccc3c2)c2ccccc2)CN1
ROCK2 protein degradation rate (at 1 μm): C (50%>C≥25%)
ROCK2 protein degradation rate (at 10 μm): B (75%>B≥50%)

C[C@@H]1CN(CC(=O)N2CC(C)(C)c3ncc(Cc4ccc(F)cc4)cc32)[C@@H](CN(C)CCOCCN[C@H](Cc2cccc(F)c2)C(=O)Nc2ccc(-c3ccncc3)cc2)CN1
ROCK2 protein degradation rate (at 1 μm): C (50%>C≥25%)
ROCK2 protein degradation rate (at 10 μm): A (A≥75%)

C[C@@H]1CN(CC(=O)N2CC(C)(C)c3ncc(Cc4ccc(F)cc4)cc32)[C@@H](CN(C)CCOCCOCCOCCN[C@H](Cc2cccc(F)c2)C(=O)Nc2ccc(-c3ccncc3)cc2)CN1
ROCK2 protein degradation rate (at 1 μm): C (50%>C≥25%)
ROCK2 protein degradation rate (at 10 μm): A (A≥75%)

COC[C@H]1CN[C@H](C)CN1CC(=O)N1CC(C)(C)c2ncc(Cc3ccccc3OCCOCCN[C@H](C)c3ccc(C(=O)Nc4ccncc4)cc3)cc21
ROCK2 protein degradation rate (at 1 μm): D (D<25%)
ROCK2 protein degradation rate (at 10 μm): B (75%>B≥50%)
